From patent US10098870B2 (JENKEM TECHNOLOGY CO., LTD. (BEIJING), priority 2013, dated 2018)

What was measured:
[1] = Body weight, survival and tolerance of mice bearing plc/prf/5 (Example 6); type: in vivo, nude mouse; conditions: day 13 after inoculation; 25 mg/kg i.v. QD×5; mean ± SE
Excerpt: Wherein QW×4W represents intravenous injection once a week for 4 weeks, BIW×4W represents intravenous injection […] for 4 weeks, the same below. (2) Experimental Results

[2] = Body weight, survival and tolerance of mice bearing Hep3B (Example 7); type: in vivo, mouse; conditions: 15 mg/kg i.v. (QD×5)×2W, mean ± SE

## O=c1[nH]cc(F)c(=O)[nH]1 [5-FU, reference compound]
[1]
  Body weight of animal: 18.4 ± 0.5 g
[2]; day 16 after inoculation
  Body weight of animal: 20.7 ± 0.4 g
[2]; day 44 after inoculation
  Body weight of animal: 18.4 ± 0.3 g
